Measurements reported in BindingDB's records for doi:10.1016/s0014-2999(02)02074-5 (Aventis Pharmaceuticals, 2002).

Sequences of proteins named here, by UniProt entry; tags and fusion partners are left off. A change or cut given only in a name is not applied to a line headed by its entry.
UniProt Q12809: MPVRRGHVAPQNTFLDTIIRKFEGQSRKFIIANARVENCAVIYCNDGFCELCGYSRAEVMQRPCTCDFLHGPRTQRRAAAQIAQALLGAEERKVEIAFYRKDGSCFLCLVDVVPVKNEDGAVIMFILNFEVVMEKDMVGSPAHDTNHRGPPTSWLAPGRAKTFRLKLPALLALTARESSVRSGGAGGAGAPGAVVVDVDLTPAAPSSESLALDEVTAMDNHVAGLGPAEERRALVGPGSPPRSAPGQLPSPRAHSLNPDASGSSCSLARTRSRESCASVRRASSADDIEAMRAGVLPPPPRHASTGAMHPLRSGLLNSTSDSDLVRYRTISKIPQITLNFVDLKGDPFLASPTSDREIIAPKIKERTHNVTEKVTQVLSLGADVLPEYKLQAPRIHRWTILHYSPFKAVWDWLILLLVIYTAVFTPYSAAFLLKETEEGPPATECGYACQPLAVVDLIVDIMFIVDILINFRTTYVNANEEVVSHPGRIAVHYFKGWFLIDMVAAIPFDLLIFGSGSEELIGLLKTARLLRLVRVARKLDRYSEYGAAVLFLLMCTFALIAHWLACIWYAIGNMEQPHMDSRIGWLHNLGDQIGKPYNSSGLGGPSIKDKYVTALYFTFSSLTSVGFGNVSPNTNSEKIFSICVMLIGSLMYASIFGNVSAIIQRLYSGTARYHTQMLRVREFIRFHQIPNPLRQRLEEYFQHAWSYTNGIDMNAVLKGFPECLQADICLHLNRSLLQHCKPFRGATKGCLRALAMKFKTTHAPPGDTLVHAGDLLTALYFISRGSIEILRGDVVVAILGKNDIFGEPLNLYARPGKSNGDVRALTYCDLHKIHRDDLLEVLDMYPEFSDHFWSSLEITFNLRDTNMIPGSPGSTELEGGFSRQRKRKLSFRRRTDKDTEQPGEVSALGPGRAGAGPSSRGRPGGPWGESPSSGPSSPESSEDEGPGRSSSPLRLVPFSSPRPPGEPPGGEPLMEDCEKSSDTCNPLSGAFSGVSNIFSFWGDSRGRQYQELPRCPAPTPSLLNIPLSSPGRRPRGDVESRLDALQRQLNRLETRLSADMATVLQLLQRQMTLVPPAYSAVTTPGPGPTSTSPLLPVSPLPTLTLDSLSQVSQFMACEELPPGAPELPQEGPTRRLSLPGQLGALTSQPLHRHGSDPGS

Biological target: Potassium voltage-gated channel subfamily H member 2 (Homo sapiens, UniProt Q12809)

Ki: 169 nM
Compound: O=C1Cc2cc(CCN3CCN(c4nsc5ccccc45)CC3)c(Cl)cc2N1 [5-[2-(4-Benzo[d]isothiazol-3-yl-piperazin-1-yl)-ethyl]-6-chloro-1,3-dihydro-indol-2-one]
